Literature values as cited in US7858597B2, “Preparation of formulations of angiotensin II AT1 receptors antagonists for the treatment of arterial hypertension, other cardiovascular illnesses and its complications” (Universidade Federal De Mimas Gerais - UFMG, priority 2001, dated 2010).

Conditions: Captopril associated to polymer (PVP) in tablets; increased from 4; cited from earlier work

For C[C@H](CS)C(=O)N1CCC[C@H]1C(=O)O [Captopril], the drug permanence is given as 16 h.
